The subject of one assay is MC38-h-HER2. Nature of the assay: Tumor inhibitory activity, MC38-h-HER2 subcutaneous model (Example 12). It is filed as in vivo, h-4-1BB KI C57 mice. The conditions noted are these: intraperitoneal injection, Q3d × 2, equivalent molar dose (3-3.6 mg/kg; combination 1.8+1.8 mg/kg). Here is the method:
In this experiment, the antitumor activity of the multi-specific antibodies of the present invention was evaluated in a tumor model using h-4-1BB KI C57 mice that were subcutaneously inoculated with MC38-h-HER2.
First, a tumor-bearing mouse model was established through subcutaneous inoculation of MC38-h-HER2 cells. […] The changes in tumor volume and body weight of mice in each group were monitored every 3-6 days/time for a duration of 2-3 weeks. The dosage and administration schedule were outlined in Table 10.

In the next assay the test system is CT26-h-HER2. Nature of the assay: Tumor inhibitory activity, CT26-h-HER2 subcutaneous model (Example 11). The note with it: intraperitoneal injection, Q2d × 4, equivalent molar dose (3-3.6 mg/kg; combinations 3+3 or 1.8+1.8 mg/kg), tumor start about 180 mm^3. Type of assay: in vivo, h-4-1BB KI BALB/c mice. Here is the method: In this experiment, the antitumor activity of the multi-specific antibodies of the present invention was evaluated in a tumor model using h-4-1BB KI BALB/c mice that was inoculated subcutaneously with CT26-h-HER2.
First, a tumor-bearing mouse model was established through subcutaneous inoculation of h-HER2 CT26 cells. […] The changes in tumor volume and body weight of mice in each group were monitored every 2-3 days/time for a duration of 2-3 weeks.

In the case of “Enhertu: Enhertu (DS8201), comparator in the tumor models”, the “tumor regression (in words)” value with MC38-h-HER2 is recorded as “complete tumor regression”. For the same substance, the TGI in the assay on CT26-h-HER2 is given as 47.7%.

Broadly, the TGI is how far tumour growth fell short of that in controls.

For the origin of these results see patent EP4592315A1, “ANTIBODY AND USE THEREOF IN RESISTING TUMOR” (Biotheus Inc., priority 2022, dated 2024).
